## Ab-91 heavy chain CDR variants: yeast mating affinities

Source: Engelhart et al. 2022 (doi:10.1038/s41597-022-01779-4), MIT Lincoln Laboratory and A-Alpha Bio; data file from the FLAb repository.

Binding partner: SARS-CoV-2 spike HR2 peptide, sequence PDVDLGDISGINAS.

Each scFv is VL, the linker GGGGSGGGGSGGGGS, VH, as in the parent Ab-91, and differs from it in the CDRs of the heavy chain only.
VL: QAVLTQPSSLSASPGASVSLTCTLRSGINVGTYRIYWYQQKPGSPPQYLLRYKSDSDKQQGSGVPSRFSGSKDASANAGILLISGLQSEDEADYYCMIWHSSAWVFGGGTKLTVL
VH: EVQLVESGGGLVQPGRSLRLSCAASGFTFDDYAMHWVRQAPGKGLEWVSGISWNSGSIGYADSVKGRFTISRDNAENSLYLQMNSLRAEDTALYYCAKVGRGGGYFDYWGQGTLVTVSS

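The parent was found by panning a naive human phage display library on the peptide. The library (AAYL51) carries one to three amino acid substitutions per variant, with no insertions or deletions. In AlphaSeq, yeast of one mating type display the scFv and yeast of the other type display the target. After mating in shaken culture at 30 °C for 16 h, diploids were selected and their barcode pairs sequenced. Each replicate has its own calibration line, from reference interactions of the BCL2 family. Mating was done three times.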

Variants are written as CDR1, CDR2 and CDR3 of the heavy chain (limits as in the source). Parent: GFTFDDYAMH, GISWNSGSIGYADSVK, VGRGGGYFDY. Numbers give log10(Kd / nM), so 0 is 1 nM and 3 is 1 µM. Smaller is tighter. Replicates are averaged; those with no signal do not enter the mean. "n.d." means that the variant was in the library but no mating with the target was seen in that replicate; the authors take this as a sign of poor binding, and no number exists. Empty control strains, which show no peptide, gave a signal in 21% of pairings with library AAYL51; the median was 4.54 and 95% of these signals were weaker than 3.26. No background was subtracted. The control count says in how many pairings with the empty strains this scFv gave a signal, with their mean in brackets.

{"CDR-H1": "GFTFDDYAMH", "CDR-H2": "GISWNTGSIGYAWSVK", "CDR-H3": "WGRGGGYFDY", "log10 Kd, replicates": "n.d. n.d. n.d.", "mean log10 Kd (nM)": "n.d.", "empty controls": "0 of 9"}
{"CDR-H1": "GFTFDDYAMH", "CDR-H2": "GLSWNSGSLGYADSVC", "CDR-H3": "VGRGGGYFDY", "log10 Kd, replicates": "n.d. n.d. n.d.", "mean log10 Kd (nM)": "n.d.", "empty controls": "0 of 9"}
{"CDR-H1": "GFTFDKYAMH", "CDR-H2": "GISWNSGSIGYADSSK", "CDR-H3": "VGRGGGYFDY", "log10 Kd, replicates": "1.27 1.42 0.89", "mean log10 Kd (nM)": "1.19", "empty controls": "2 of 9 (4.67)"}
{"CDR-H1": "GFTFDDYAMH", "CDR-H2": "GISWNSGSIGYDDSVK", "CDR-H3": "VTRQGGYFDY", "log10 Kd, replicates": "n.d. n.d. n.d.", "mean log10 Kd (nM)": "n.d.", "empty controls": "0 of 9"}
{"CDR-H1": "GFTFDDQDMH", "CDR-H2": "GISWNSGSIGYADQVK", "CDR-H3": "VGRGGGYFDY", "log10 Kd, replicates": "5.29 5.14 5.49", "mean log10 Kd (nM)": "5.31", "empty controls": "8 of 9 (4.88)"}
{"CDR-H1": "GFTFDDYAMH", "CDR-H2": "GFSNNSGSIGYADSVK", "CDR-H3": "VGRGGGYFDC", "log10 Kd, replicates": "n.d. 4.44 3.20", "mean log10 Kd (nM)": "3.82", "empty controls": "4 of 9 (4.49)"}
{"CDR-H1": "GFTFDDYAMH", "CDR-H2": "GISWNSGSIGKADSVM", "CDR-H3": "GGRGGGYFDY", "log10 Kd, replicates": "5.65 5.21 5.15", "mean log10 Kd (nM)": "5.34", "empty controls": "5 of 9 (5.00)"}
{"CDR-H1": "GFTFDDYAMH", "CDR-H2": "GFSWNWGSIGYADSVS", "CDR-H3": "VGRGGGYFDY", "log10 Kd, replicates": "3.59 n.d. n.d.", "mean log10 Kd (nM)": "3.59", "empty controls": "1 of 9 (4.71)"}
{"CDR-H1": "GFTFDDYAMH", "CDR-H2": "GISWNSGSIGYVDSVK", "CDR-H3": "VGRGGGYFDS", "log10 Kd, replicates": "1.10 1.10 0.76", "mean log10 Kd (nM)": "0.99", "empty controls": "4 of 9 (5.41)"}
{"CDR-H1": "GFTFDDYYHH", "CDR-H2": "GKSWNSGSIGYADSVK", "CDR-H3": "VGRGGGYFDY", "log10 Kd, replicates": "n.d. n.d. n.d.", "mean log10 Kd (nM)": "n.d.", "empty controls": "3 of 9 (4.81)"}
{"CDR-H1": "SFTFDDYAMH", "CDR-H2": "GISWNSGSIGYADSVK", "CDR-H3": "LKRGGGYFDY", "log10 Kd, replicates": "4.52 5.86 4.85", "mean log10 Kd (nM)": "5.07", "empty controls": "6 of 9 (5.53)"}
{"CDR-H1": "GFTFDDYAMH", "CDR-H2": "GISINSGSEGYADSVK", "CDR-H3": "MGRGGGYFDY", "log10 Kd, replicates": "n.d. n.d. n.d.", "mean log10 Kd (nM)": "n.d.", "empty controls": "0 of 9"}
{"CDR-H1": "GFTFDDYAMH", "CDR-H2": "EISWNSGSIGYADSVK", "CDR-H3": "VGRGGGYMDY", "log10 Kd, replicates": "n.d. n.d. n.d.", "mean log10 Kd (nM)": "n.d.", "empty controls": "0 of 9"}
{"CDR-H1": "GFTFDDLLMH", "CDR-H2": "GISWNSGSIGYADSVK", "CDR-H3": "VDRGGGYFDY", "log10 Kd, replicates": "n.d. n.d. n.d.", "mean log10 Kd (nM)": "n.d.", "empty controls": "0 of 9"}
{"CDR-H1": "GDGFDDYAMH", "CDR-H2": "GISWNSGSIGYADSVK", "CDR-H3": "VGRGGGHFDY", "log10 Kd, replicates": "4.63 3.95 5.42", "mean log10 Kd (nM)": "4.67", "empty controls": "7 of 9 (4.92)"}
{"CDR-H1": "GFTFDDYATH", "CDR-H2": "GISWNSGSIGYADSVK", "CDR-H3": "VGRGGGQFDY", "log10 Kd, replicates": "n.d. n.d. n.d.", "mean log10 Kd (nM)": "n.d.", "empty controls": "0 of 9"}
{"CDR-H1": "GFTFDHYVMH", "CDR-H2": "GISWNSGSIGYADSVK", "CDR-H3": "SGRGGGYFDY", "log10 Kd, replicates": "n.d. n.d. n.d.", "mean log10 Kd (nM)": "n.d.", "empty controls": "1 of 9 (3.35)"}
{"CDR-H1": "GPTFDDYAMH", "CDR-H2": "GISWNSGSIGYADSVK", "CDR-H3": "VGRDGGYDDY", "log10 Kd, replicates": "4.96 n.d. n.d.", "mean log10 Kd (nM)": "4.96", "empty controls": "4 of 9 (3.94)"}
{"CDR-H1": "GFTFDDYAMH", "CDR-H2": "GNSWNSGSIGYADSVK", "CDR-H3": "VCQGGGYFDY", "log10 Kd, replicates": "n.d. n.d. n.d.", "mean log10 Kd (nM)": "n.d.", "empty controls": "0 of 9"}
{"CDR-H1": "GFTFDDYAMQ", "CDR-H2": "CISWNSGSIGYADSVK", "CDR-H3": "VGRGGGYFDY", "log10 Kd, replicates": "5.23 n.d. n.d.", "mean log10 Kd (nM)": "5.23", "empty controls": "2 of 9 (4.84)"}
{"CDR-H1": "GFTFDDYAMH", "CDR-H2": "GIGWNSGEIGYADSVK", "CDR-H3": "VGRGKGYFDY", "log10 Kd, replicates": "3.64 4.08 4.86", "mean log10 Kd (nM)": "4.20", "empty controls": "3 of 9 (4.37)"}

The first 2 entries again:

{"CDR-H1": "GFTFDDYAMH", "CDR-H2": "GISWNTGSIGYAWSVK", "CDR-H3": "WGRGGGYFDY", "log10 Kd, replicates": "n.d. n.d. n.d.", "mean log10 Kd (nM)": "n.d.", "empty controls": "0 of 9"}
{"CDR-H1": "GFTFDDYAMH", "CDR-H2": "GLSWNSGSLGYADSVC", "CDR-H3": "VGRGGGYFDY", "log10 Kd, replicates": "n.d. n.d. n.d.", "mean log10 Kd (nM)": "n.d.", "empty controls": "0 of 9"}